The target in this test is T1, CB2 receptor (Homo sapiens, UniProt P34972).
T1 construct: expressed in transfected cells; host or cells: COS-7 cells
The test is described as follows: CB2 receptor binding, [3H]HU-243 displacement, COS-7 cells transfected with CB2 cDNA. The protocol: For CB1 receptor binding, synaptosomal membranes were prepared from the brains of Sabra rats by homogenization and gradient centrifugation (Devane et al, 1992). For CB2 receptor binding assay, COS-7 cells were transfected with plasmids containing CB2 cDNA, and crude membranes were prepared (Munro et al, 1993).
Bound and free radioligands were separated by centrifugation. The data were normalized to 100% of specific binding, which was determined with 50 nM unlabeled HU-243.

The chains behind the UniProt entries cited, without tags or fusion partners.
UniProt P34972, whole entry: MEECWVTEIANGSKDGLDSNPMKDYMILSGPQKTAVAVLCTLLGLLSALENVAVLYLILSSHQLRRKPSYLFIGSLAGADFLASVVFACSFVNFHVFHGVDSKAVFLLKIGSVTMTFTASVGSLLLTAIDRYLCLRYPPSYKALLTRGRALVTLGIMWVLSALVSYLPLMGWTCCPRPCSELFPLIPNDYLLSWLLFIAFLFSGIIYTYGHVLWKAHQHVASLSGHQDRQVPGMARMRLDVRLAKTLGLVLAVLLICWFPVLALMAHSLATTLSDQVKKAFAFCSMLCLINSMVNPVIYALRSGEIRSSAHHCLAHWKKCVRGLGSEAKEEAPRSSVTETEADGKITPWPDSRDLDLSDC

A word on the Ki: it is a measure of affinity in units of concentration, obtained from inhibition or displacement. A low value points to a stronger hold on the target.

As for `CCCCCCC(C)(C)c1cc(OC)c([C@@H]2C=C(CO)C3CC2C3(C)C)c(OC)c1` (single isomer, unassigned; (-)) [HU-433, (−)-2-(3-myrtenyl)-5-dimethylheptyl resorcinol], the affinity corresponds to a Ki of 12.2 nM.

These data come from patent US9428431B2, “Compositions comprising CB receptor agonists, uses thereof and methods for their preparation” (Yissum Research Development Company of the Hebrew …, priority 2008, dated 2016).
